From patent publication EP3959993B1, “METHOD FOR SOLVENT FREE PRODUCTION OF AROMA CONCENTRATES” (Symrise AG, priority 2020, dated 2022)

Tests used:
[1] = Influence of the amount of NaCl on the distribution between oil phase and water phase (Example 5); format: physicochemical
[2] = Second oil phase obtained by adding NaCl to the water phase (Example 4); format: physicochemical
Method: Cross linked polystyrene was used as adsorbent material. The volume flux for loading the adsorbent was 300 ml/min.
The adsorbent was heated to 150 °C, the temperature of the applied water steam was 160 °C.
The water steam flux was 10 g/min and was applied for 100 min.
The oil and water phases were separated.
A second oil phase was separated and was collected.

## butanol
[1]
  Distribution in [%] between oil phase and water phase after condensation: Water phase: 50% and 46% and 75.1% and 64.8% and 54.2% and 52.5%
[2]
  Loss in the water phase: 46,0%

“And” between values parts separate entries of the source, which are not always exact repeats. Equal entries are not always repeated.
